Test results as given in PubChem BioAssay AID2291 (The Scripps Research Institute Molecular Screening Center, 2010).
The entries are a selection whose mix differs from that of the whole data set. The source made the active and inactive calls. Cut-off read from the data, not from the text of the source: active = inhibition above about 30%; inactive = the rest.

Sequences of proteins named here, by UniProt entry; tags and fusion partners are left off.
UniProt Q9Y570, whole entry: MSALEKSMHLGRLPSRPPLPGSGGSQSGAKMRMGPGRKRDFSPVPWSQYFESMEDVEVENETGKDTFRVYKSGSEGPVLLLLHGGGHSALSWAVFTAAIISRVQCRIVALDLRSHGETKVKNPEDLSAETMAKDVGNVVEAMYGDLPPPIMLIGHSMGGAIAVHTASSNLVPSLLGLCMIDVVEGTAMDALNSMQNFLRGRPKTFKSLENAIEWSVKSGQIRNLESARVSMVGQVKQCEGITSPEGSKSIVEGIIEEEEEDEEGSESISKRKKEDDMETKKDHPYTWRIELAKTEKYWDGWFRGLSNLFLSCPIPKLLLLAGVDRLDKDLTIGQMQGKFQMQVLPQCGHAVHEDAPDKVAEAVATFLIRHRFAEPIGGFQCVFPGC

The compounds below were run against Protein phosphatase methylesterase 1 (Homo sapiens) (UniProt Q9Y570) (assay: Maybridge compound blocking human PME-1 (AID 2291)). Details: recombinant PME-1, FP-Rh probe fluorescence polarization; at 9 µM; stronger effect = higher value.

Structure (SMILES) | inhibition
Cc1ccccc1NC1CC(C)(C)NC(C)(C)C1 | inactive: 3.98%
